# Literature values in patent US20250248951A1, “[…] PREPARATION AND USE THEREOF” (YICHANG HUMANWELL PHARMACEUTICAL CO., LTD., priority 2022, published 2025).
# System: 5-HT
compound,measurement,value
"CN[C@]1(c2ccccc2Cl)CCCCC1=O.Cl [D-ketamine, (S)-2-(2-chlorophenyl)-2-(methylamino) cyclohexanone hydrochloride]","inhibitory effect on 5-HT, % of L-ketamine",50%
